Data from ChEMBL document CHEMBL5375988, “AcGlcAs: A Novel P53-Targeting Arsenical with Potent Cellular Uptake and Cancer Cell Selectivity” (J Med Chem, 2023).

System: NB-4
Test: Antiproliferative activity against human NB4 cells expressing PML/RARalpha assessed as cell growth inhibition measured after 48 hrs by CCK-8 assay

Structure (SMILES): I[As](I)I
- IC50: 160 nM

Structure (SMILES): O=[As]c1ccccc1 (configuration not stated)
- IC50: 30 nM
